Measurements taken from patent US20250382268A1, “METHODS AND COMPOSITIONS FOR SELECTIVELY INHIBITING PATHOGENIC MICROBES” (priority 2019, published 2025).

Test system: pathogens (SA, TR) and skin commensals (RM, SE)
Settings: Table 1

For `Oc1ccc(Sc2c[nH]c3ccccc23)cc1` [Compound 156I, 4-((1H-indol-3-yl)thio)phenol], the “Selectivity Pathogens to commensal” value was over 4.
